{
  "source": "published antibiotic growth screens (doi:10.1038/s41589-023-01349-8)",
  "note": "Some of the results follow.",
  "data": [
    {"test_system": "A. baumannii ATCC 17978", "test": "relative growth (fraction of control); higher = less inhibition", "conditions": "50 µM", "values": [
      {"compound": "C=C1CC2C3C=C(C)C4=CC(=O)CC[C@]4(C)C3CC[C@]2(C)[C@@]1(OC(C)=O)C(C)=O", "note": "(stereo partly drawn)", "relative growth": 0.98},
      {"compound": "O=C(C[C@H]1CC[C@@H]2[C@H](COC[C@@H](O)CN2S(=O)(=O)c2ccc(F)cc2)O1)NCCN1CCCCC1", "relative growth": 0.953},
      {"compound": "C[C@@H]1CN([C@H](C)CO)S(=O)(=O)c2ccc(C#Cc3ccc(F)cc3)cc2O[C@H]1CN(C)S(=O)(=O)c1cn(C)cn1", "relative growth": 0.928},
      {"compound": "CO[C@@H]1CN(C)C(=O)c2ccc(NC(=O)Nc3ccccc3)cc2OC[C@@H](C)N(C(=O)CN(C)C)C[C@@H]1C", "relative growth": 0.998},
      {"compound": "COc1cc(O)c(C(=O)c2ccccc2)cc1S(=O)(=O)O", "relative growth": 0.941},
      {"compound": "COc1ncnc2nc[nH]c12", "relative growth": 0.917},
      {"compound": "CN1CCN(C(=O)CNS(=O)(=O)c2ccccc2)CC1", "relative growth": 1.07},
      {"compound": "CC(=O)OCC(=O)[C@@]1(O)CCC2C3CC[C@@H]4C[C@H](O)CC[C@]4(C)C3C(=O)C[C@@]21C", "note": "(stereo partly drawn)", "relative growth": 1.01},
      {"compound": "CC(=O)O[C@]1(C(C)=O)CCC2C3C=C(Cl)C4=CC(=O)CC[C@]4(C)C3CC[C@@]21C", "note": "(stereo partly drawn)", "relative growth": 1.08},
      {"compound": "C[C@@H]1CN([C@@H](C)CO)S(=O)(=O)c2ccc(-c3cncnc3)cc2O[C@H]1CN(C)C(=O)NC1CCCC1", "relative growth": 0.852},
      {"compound": "COc1cc(OC)c2c(=O)c(O)c(-c3ccc(OC)c(OC)c3)oc2c1", "relative growth": 0.921},
      {"compound": "C(=N\\c1cc(-c2ccccc2)nn1-c1ccccc1)/c1ccccc1", "relative growth": 1.07},
      {"compound": "O=C(O)c1cn2cccc(O)c2n1", "relative growth": 1.08},
      {"compound": "CCN(CC)CCOC(=O)C(c1ccccc1)C1CCCCC1.Cl", "note": "(stereo not drawn)", "relative growth": 0.895},
      {"compound": "O=C(C[C@H]1C[C@H]2c3cc(NS(=O)(=O)c4ccc(F)cc4)ccc3O[C@H]2[C@@H](CO)O1)NCc1ccccc1F", "relative growth": 1.01},
      {"compound": "O=C1CN(/N=C/c2ccc(-c3ccc([N+](=O)[O-])cc3)o2)C(=O)[N-]1.[Na+]", "relative growth": 0.949},
      {"compound": "O=C(O)CC(O)(CC(=O)O)C(=O)O", "relative growth": 0.962},
      {"compound": "CC(=O)N(C)C[C@@H]1Oc2cc(C#CCN(C)C)ccc2S(=O)(=O)N([C@H](C)CO)C[C@@H]1C", "relative growth": 0.966},
      {"compound": "CC(=O)OCC(=O)[C@@]1(O)CCC2C3CCC4=CC(=O)C=C[C@]4(C)[C@@]3(Cl)[C@@H](Cl)C[C@@]21C", "note": "(stereo partly drawn)", "relative growth": 0.883},
      {"compound": "C=CC1=C(C)c2cc3[nH]c(cc4nc(cc5[nH]c(cc1n2)c(C)c5CCC(=O)O)C(CCC(=O)O)=C4C)c(C)c3C=C", "relative growth": 1.05},
      {"compound": "CN(C)CCCNc1ncnc(N)c1[N+](=O)[O-]", "relative growth": 0.857},
      {"compound": "CO[C@H]1C[C@@H]2CC[C@@H](C)[C@@](O)(O2)C(=O)C(=O)N2CCCC[C@H]2C(=O)O[C@H]([C@H](C)C[C@@H]2CC[C@@H](OCCO)[C@H](OC)C2)CC(=O)[C@H](C)/C=C(\\C)[C@@H](O)[C@@H](OC)C(=O)[C@H](C)C[C@H](C)/C=C/C=C/C=C/1C", "relative growth": 0.88},
      {"compound": "CO[C@H]1O[C@H](COC(=O)NCCCCCC(=O)NO)[C@H](OC(=O)Nc2ccccc2)[C@H](OC(=O)Nc2ccccc2)[C@H]1OC(=O)Nc1ccccc1", "relative growth": 1.08},
      {"compound": "CN1C(=O)CC(c2ccccc2)C1=O", "note": "(stereo not drawn)", "relative growth": 0.901},
      {"compound": "COC(=O)[C@H](Cc1ccccc1)N1CC2=C[C@H](C3CC3)n3c(=O)n(C)c(=O)n3[C@@H]2[C@H]1[C@H](O)Cc1ccccc1", "relative growth": 1.1},
      {"compound": "O=C(CCN1CCNCC1)N1CCCCC1", "relative growth": 0.87},
      {"compound": "C[C@@H]1CN([C@@H](C)CO)S(=O)(=O)c2ccc(-c3cncnc3)cc2O[C@H]1CN(C)C(=O)c1ccc2c(c1)OCO2", "relative growth": 1},
      {"compound": "COc1ccc2c(c1)c(-c1ccccc1)nn2-c1ccc(C)cc1", "relative growth": 0.974},
      {"compound": "CCOc1ccc(NC2=NC(=O)/C(=C/c3cc(Br)c(OCc4ccccc4)c(OC)c3)S2)cc1", "relative growth": 0.899},
      {"compound": "CO[C@@H]1CN(C)C(=O)c2cc(NC(=O)NC3CCCCC3)ccc2OC[C@@H](C)N(CCc2ccccc2)C[C@@H]1C", "relative growth": 1.1},
      {"compound": "CC(=O)N1CCn2nncc2C[C@@]1(C)C1CC1", "relative growth": 0.914},
      {"compound": "COCC(=O)OCn1nnc2ccccc2c1=O", "relative growth": 0.893},
      {"compound": "Nc1ncnc2c1ncn2[C@@H]1O[C@H](CO)[C@@H](O)[C@H]1O", "relative growth": 1.06},
      {"compound": "COCC(=O)N1C[C@H](C)[C@H](OC)CN(C)C(=O)c2ccc(NC(=O)c3cc(C)on3)cc2OC[C@H]1C", "relative growth": 1},
      {"compound": "COc1cc2ccnc(CCCN)c2cc1OC", "relative growth": 0.987},
      {"compound": "C[C@H]1CN([C@@H](C)CO)C(=O)c2cc(C#CCc3ccccc3)cnc2O[C@@H]1CN(C)C(=O)Cc1cccnc1", "relative growth": 0.998},
      {"compound": "NC(=O)[C@H]1Cc2ccccc2N1", "relative growth": 1.08},
      {"compound": "COc1ccc2c(c1)OCC(Cc1ccc(O)c(OC)c1)C2=O", "note": "(stereo not drawn)", "relative growth": 0.882},
      {"compound": "CC(C)C#Cc1cnc2c(c1)C(=O)N([C@H](C)CO)C[C@@H](C)[C@@H](CN(C)S(=O)(=O)c1cn(C)cn1)O2", "relative growth": 1.04},
      {"compound": "C=CC[C@@H](CC(=O)N[C@H](CO)Cc1ccccc1)C(=O)NCCOC(=O)[C@H](CC=C)CC(=O)OC(C)(C)C", "relative growth": 0.577},
      {"compound": "CCCOc1ccnc2c1c(=O)n(C)c(=O)n2C", "relative growth": 0.924},
      {"compound": "O=C(O)c1cc2ccccc2c(Cc2c(O)c(C(=O)O)cc3ccccc23)c1O.OCCOCCN1CCN(C(c2ccccc2)c2ccc(Cl)cc2)CC1", "relative growth": 0.966},
      {"compound": "C=C(C)[C@@H]1CC[C@]2(C(=O)O)CC[C@]3(C)[C@H](CCC4[C@@]5(C)CC[C@H](O)C(C)(C)C5CC[C@]43C)[C@@H]12", "note": "(stereo partly drawn)", "relative growth": 0.969},
      {"compound": "COC(=O)[C@@H]1CC(=O)N(C(C)C)C1", "relative growth": 0.979},
      {"compound": "CCNc1nc(=O)cc(F)[nH]1", "relative growth": 0.884},
      {"compound": "C[C@@H]1CN([C@@H](C)CO)S(=O)(=O)c2ccc(-c3ccncc3)cc2O[C@H]1CN(C)C(=O)c1cccc(F)c1", "relative growth": 0.991},
      {"compound": "C[C@@H]1CN([C@@H](C)CO)S(=O)(=O)c2ccc(-c3cncnc3)cc2O[C@@H]1CN(C)C(=O)Cc1ccncc1", "relative growth": 1.05},
      {"compound": "COCC(=O)N[C@H]1C=C[C@@H](CC(=O)N2CCCCC2)O[C@@H]1CO", "relative growth": 1.1},
      {"compound": "CCN(CC)C(=O)c1cccnc1", "relative growth": 0.849},
      {"compound": "CCN(CC)C(=O)c1cccc(C)c1", "relative growth": 0.959},
      {"compound": "O=C(C[C@@H]1CC[C@H](NS(=O)(=O)c2ccc(F)cc2)[C@H](CO)O1)N1CCC(Cc2ccccc2)CC1", "relative growth": 1.04},
      {"compound": "CCCN(CCC)S(=O)(=O)c1ccc(C(=O)O)cc1", "relative growth": 1.01},
      {"compound": "C[C@H]1O[C@H](O[C@H]2[C@H](O)[C@@H](O)[C@@H](O[C@H]3[C@H](O)[C@@H](O)C(O)O[C@@H]3CO)O[C@@H]2CO)[C@H](O)[C@@H](O)[C@@H]1N[C@H]1C=C(CO)[C@@H](O)[C@H](O)[C@H]1O", "note": "(stereo partly drawn)", "relative growth": 0.961}
    ]}
  ]
}
